From PubChem BioAssay (Tox21)
“And” between values parts separate entries of the source, which are not always exact repeats. Equal values may be shown once. The entries are a selection whose mix differs from that of the whole data set. Records with an inconclusive call do not appear. The source made the active and inactive calls. Calls come from the whole dose curve.

Assay: qHTS assay for small molecule disruptors of the mitochondrial membrane potential - cell viability (AID 720634); note: nearly all actives have a fitted effect of over 20% in size;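 for activity change, negative = cytotoxicity: human HepG2 liver cancer cells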
Conditions: HepG2 viability, ATP luminescence (CellTiter-Glo), 1 h; series mostly up to 83.2 µM; activity change, negative = cytotoxicity: at the top concentration
Text: U.S. Tox21 Program National Center for Advancing Translational Sciences [NCATS] NIH Chemical Genomics Center [NCGC] U.S. Environmental Protection Agency [EPA] National Institutes of Environmental Health Sciences [NIEHS] National Toxicology Program [NTP] U.S. Food and Drug Administration [FDA] Tox21 Assay Overview: Mitochondrial membrane potential (MMP), one of the parameters for mitochondrial function, is generated by mitochondrial electron transport chain that creates an electrochemical gradient by a series of redox reactions. This gradient drives the synthesis of ATP, a crucial molecule for various cellular processes. Measuring MMP in living cells is commonly used to assess the effect of chemicals on mitochondrial function; decreases in MMP can be detected using lipophilic cationic fluorescent dyes. […] The dye accumulates in the mitochondria of healthy cells as aggregates, with red fluorescence. The mitochondrial potential decreases and the dye could not accumulate in the mitochondria and remains in the cytoplasm in monomers, with green fluorescence. In addition to the mitochondrial potential assay, these cells were also used to test the cytotoxicity by determining the cell viability in the culture based on the quantitation of ATP present. The cytotoxicity was measured in the same assay well of MMP assay.
Tox21 Assay Protocol Summary: 2,000 HepG2 cells in 5 uL/well were dispensed into black, clear-bottom 1536-well plates using a Multidrop Combi (Thermo Scientific) dispenser. The assay plates were incubated for an overnight at 37 C to allow cells to attach to the wells, followed by the transfer of 23 nL compound or DMSO vehicle by a pin tool (Kalypsys). The plates were incubated for 1 hr at 37 C and 5% CO2, followed by the addition of 5 uL of 2X m-MPI dye into each well using Flying Reagent Dispenser (Aurora Discovery) and then CellTiter-Glo reagent was added at 4 uL/well and incubated 30 min at room temperature. Then luminescence intensity was quantified on a ViewLux CCD-based plate reader.
% is set by controls: 0 for no effect and ±100 for the full control effect; potency is the fitted concentration of half-maximal effect.

| Compound | activity change, negative = cytotoxicity | Potency |
| --- | --- | --- |
| COP(=S)(Cl)OC | inactive: 6.6% [at 95.3 µM] |  |
| CCCCC(CC)CO[P+](=O)OCC(CC)CCCC (stereo unspecified) | inactive: 7.45% |  |
| O=C(OC1CN2CCC1CC2)c1ccccc1 (stereo unspecified) | inactive: 4.15% |  |
| CCCCO[P+](=O)OCCCC |  | inactive |
| CN(C(=O)Cc1cccc2occc12)[C@H]1CC[C@@]2(CCCO2)C[C@@H]1N1CCCC1 | inactive: 5.42% |  |
| COC(=O)Cl | inactive: 3.13% |  |
| O=P(Cl)(Oc1ccccc1)Oc1ccccc1 | inactive: 8.86% |  |
| O=[N+]([O-])c1ccc(S(=O)(=O)O)c([N+](=O)[O-])c1 | inactive: 3.6% [at 95.3 µM] |  |
| ClP(Cl)c1ccccc1 | inactive: 8.8% |  |
| CN(C(=O)Cc1ccc(Cl)c(Cl)c1)[C@H]1CC[C@@]2(CCCO2)C[C@@H]1N1CCCC1 | inactive: 12.4% |  |
| O=[P+](Oc1ccccc1)Oc1ccccc1 | inactive: 16% |  |
| Cc1cc([N+](=O)[O-])cc([N+](=O)[O-])c1O |  | active: 4.33 µM and active: 1.72 µM |
| O=P(Cl)(Cl)c1ccccc1 | inactive: -13.1% |  |
| CN(C(=O)Cc1ccccc1)[C@H]1CC[C@@]2(CCCO2)C[C@@H]1N1CCCC1 | inactive: 8.99% |  |
| CCOC(=O)Cl | inactive: 9.77% |  |
| O=[p+]1oc2ccccc2c2ccccc21 (stereo unspecified) | inactive: 8.05% |  |
| Cc1cc([N+](=O)[O-])c(O)c([N+](=O)[O-])c1 | inactive: -4.69% [at 95.3 µM] |  |
| CC(C)CCCCCCCOP(OCCCCCCCC(C)C)Oc1ccccc1 | inactive: -6.75% |  |
| CN(N=O)C(=N)N[N+](=O)[O-] | inactive: 0.566% |  |
| CCOP(=S)(CC)Sc1ccccc1 (stereo unspecified) | inactive: -1.31% |  |
| CCNC(C)Cc1ccc2c(c1)OCO2 (stereo unspecified) | inactive: -6.06% [at 95.3 µM] |  |
